For this assay, the system named is PBMCs. Put plainly: SCNP of immunomodulator signaling nodes in PBMC subpopulations of 60 healthy donors (Example 16). Particulars: 50 ng/ml, 15 min. It is filed as cell-based, human. Here is the method:
Cryopreserved PBMC samples were thawed at 37° C. and resuspended in RPMI 1% FBS before staining with amine aqua viability dye (Invitrogen, Carlsbad, Calif.). Cells were resuspended in RPMI 10% FBS, aliquoted to 100,000 cells per well of 96-well plates, and rested for 2 h at 37° C. prior to 15 min 37° C. incubation with the following modulators: 1000 IU/ml IFNα (PBL, Piscataqay, N.J.); 250 ng/ml IFNγ, 50 ng/ml IL4, 50 ng/ml IL10, α-IgD 5 m/ml (BD, San Jose, Calif.); 50 ng/ml IL2, 50 ng/ml IL6, 50 ng/ml IL27, CD40L 0.5 μg/ml (R&D, Minneapolis, Minn.); R848 5 μg/ml (Invivogen, San Diego, Calif.); LPS 1 μg/ml, PMA 40 nM (Sigma Aldrich, St. Louis, Mo.). […]
Flow cytometry data was acquired using FACS DIVA software (BD, San Jose, Calif.) on two LSRII Flow Cytometers (BD, San Jose, Calif.). All flow cytometry data were analyzed with WinList (Verity House Software, Topsham, Me.). […]
The term “signaling node” can refer to a specific protein readout in the presence or absence of a specific modulator. For example, a response to IFNα stimulation can be measured using pStat1 as a readout. […] Each signaling node can be measured in each cell subpopulation. […] The Equivalent Number of Reference Fluorophores (ERFs), fluorescence measurements calibrated by rainbow calibration particles on each 96-well plate, serve as a basis for all metric calculations (6, 7).

In the case of IL2: cytokine used as modulator, the “pStat5 activation by cell type” value is “led to pStat5 activation primarily in CD3-CD20-lymphocytes and T cells”.

The record behind these values is patent US9459246B2, “Induced intercellular communication” (Nodality, Inc., priority 2009, dated 2016).
